Assays:
[1] = test system: pGL3(4X48) Sox9 responsive reporter gene; assay: pGL3(4X48) luciferase reporter gene activity in transiently transfected primary limb mesenchymal cultures; type: cell-based, mouse
Excerpt: To increase reporter gene sensitivity, the Sox9 responsive reporter gene from 4X48-p89 luciferase (14) was subcloned into pGL3-basic (Promega). A fragment containing the reiterated (4 X 48) Sox9 binding sequence upstream of the mouse col II minimal promoter (−89 to +13) was liberated from 4X48-p89 plasmid by digestion with Bam HI and Hind III. This fragment was subcloned into the Bgl II and […] sites of pGL3-basic (Promega) to generate pGL3(4X48). To generate an EGFP-based col II reporter, the luciferase gene within pGL3(4X48) was replaced with EGFP-N1 (Clontech). For expression of genes in primary cultures a modified version of pSG5 (Stratagene), pSG5HS, was used which contains two additional restriction endonuclease sites, Hind III and Spe I. The myogenin promoter-luciferase construct was made by subcloning a 1.14 kB fragment of the myogenin promoter (containing the region from pGZ1092) from plasmid pGBB into pGL3-basic. The cardiac actin promoter-luciferase vector was generated by subcloning a fragment of the cardiac actin promoter from −440 to +6 into pGL3-basic. […]
Analysis of reporter gene activity using the Dual Luciferase Assay System was done following the manufacturer's instructions (Promega). […] Firefly and renilla luciferase activities were determined using 40 μl of lysate in a 96-well plate reading luminometer (Molecular Devices).

limb mesenchymal cells = assay: Alcian blue staining of cartilage nodules in primary limb mesenchymal cultures; type: cell-based, mouse; settings: 10 ng/ml, 2 and 4 days, vs untreated cultures
Description: Limb mesenchymal cells were harvested from embryonic age 11.25-11.75 mouse embryos as previously described (19). To establish proximal or distal cultures the proximal half of each limb bud was separated from the distal half, and each pool of limb fragments was processed separately. The cells were resuspended at a density of 1.5−2×10^7 cells/ml. For transfection purposes, cells were mixed with a DNA/FuGene6 mixture in a 2:1 ratio. FuGene6-DNA mixtures were prepared according to the manufacturer's instructions (Roche Biomolecular). Briefly, 1 μg of reporter, 1 μg of expression vector and 0.05 μg of pRLSV40 (Promega) were mixed for a total of ˜2 μg DNA in 100 μl of media and FuGene6. Fifty microlitres of the DNA mixture was transferred into a sterile 1.5 ml eppendorf tube, followed by 100 μl of cells. Cells were gently triturated and 10 μl was used to seed a single well of a 24-well culture dish. After 1.5 hrs in a humidified CO2 incubator, 1 ml of media containing compounds of interest was added to each well and was subsequently replaced 24 hrs following transfection.
Alcian blue staining was performed on fixed cultures also as described (4). Mouse anti-MyHC monoclonal antibody supernatant was used to observe those cells within primary limb mesenchymal cultures that are myogenic (2). […]

[2] = test system: Sox9 and col II expression; assay: Northern blot analysis of Sox9 and col II expression in limb mesenchymal cultures; type: cell-based, mouse; settings: treated cultures, Northern blot (FIG. 3G)
Description: Northern blots were carried out using total RNA from limb mesenchymal cultures, as previously described (19). Briefly, total RNA was extracted from cells 2 or 4 days after cultures were initiated. Cells were treated with media alone or with 10 ng/ml BMP-4. Synthesis of the Col II cDNA fragment used was as described previously (19). The Sox9 cDNA probe was made using an EST clone, GenBank accession number AI594348 (Research Genetics). The Sox9 fragment was released from pT7T3 using Eco RI and Not I.

primary chondrocytes = settings: cited from earlier work

bone morphogenetic protein-2 [BMP-2]
normalized RLU (pGL3(4X48) reporter gene activity) ([1]; protein added at 10 ng/ml, RLU values normalized to control reporter activity): 1.9 | increase in reporter gene activity ([1]; treatment of reporter gene-transfected cells, 10 ng/ml (FIG. 3H)): ~2 fold | cartilage nodule number (alcian blue) (limb mesenchymal cells): dramatic increase in nodule number | Sox9 and col II expression [2]: increase in Sox9 and col II expression | effect on reporter gene activity / differentiation reported by Murakami et al. (primary chondrocytes): did not see any response

Source: US20020061514A1, “Assay for identifying modulators of chondrogenesis” (priority 2000, published 2002)
